Laboratory results taken from US6017877A, “Method and composition for treating thrombosis” (priority 1994, dated 2000).

Amino acid sequences for entries named in this document (tags omitted). Residues count along the entry.
UniProt P05106, 27-788: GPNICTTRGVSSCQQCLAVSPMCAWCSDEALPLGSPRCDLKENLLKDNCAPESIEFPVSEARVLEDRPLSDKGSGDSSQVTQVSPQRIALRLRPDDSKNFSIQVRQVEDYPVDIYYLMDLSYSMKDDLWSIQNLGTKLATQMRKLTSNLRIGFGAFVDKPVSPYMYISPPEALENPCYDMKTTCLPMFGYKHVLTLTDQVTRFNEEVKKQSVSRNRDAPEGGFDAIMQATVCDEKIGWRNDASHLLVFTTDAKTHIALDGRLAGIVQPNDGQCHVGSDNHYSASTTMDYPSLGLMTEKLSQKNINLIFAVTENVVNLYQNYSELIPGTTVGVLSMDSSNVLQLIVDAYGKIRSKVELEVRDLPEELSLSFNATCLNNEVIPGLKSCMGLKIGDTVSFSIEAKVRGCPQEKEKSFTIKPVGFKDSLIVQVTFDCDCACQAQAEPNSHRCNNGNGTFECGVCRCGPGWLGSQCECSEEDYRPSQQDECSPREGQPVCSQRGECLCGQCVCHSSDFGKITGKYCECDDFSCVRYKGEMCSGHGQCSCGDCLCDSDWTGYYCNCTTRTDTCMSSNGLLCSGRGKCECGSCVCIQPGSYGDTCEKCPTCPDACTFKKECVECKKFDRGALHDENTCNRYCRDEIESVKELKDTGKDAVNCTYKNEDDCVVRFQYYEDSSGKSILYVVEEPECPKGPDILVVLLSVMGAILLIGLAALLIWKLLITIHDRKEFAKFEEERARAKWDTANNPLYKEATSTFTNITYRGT
UniProt P06756, 891-1048 partner limits assumed: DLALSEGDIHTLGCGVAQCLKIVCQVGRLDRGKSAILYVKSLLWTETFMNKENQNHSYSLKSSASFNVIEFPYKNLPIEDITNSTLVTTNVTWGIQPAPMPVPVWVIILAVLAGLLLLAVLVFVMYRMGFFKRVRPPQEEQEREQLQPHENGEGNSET
UniProt P06756, 31-889 limits assumed: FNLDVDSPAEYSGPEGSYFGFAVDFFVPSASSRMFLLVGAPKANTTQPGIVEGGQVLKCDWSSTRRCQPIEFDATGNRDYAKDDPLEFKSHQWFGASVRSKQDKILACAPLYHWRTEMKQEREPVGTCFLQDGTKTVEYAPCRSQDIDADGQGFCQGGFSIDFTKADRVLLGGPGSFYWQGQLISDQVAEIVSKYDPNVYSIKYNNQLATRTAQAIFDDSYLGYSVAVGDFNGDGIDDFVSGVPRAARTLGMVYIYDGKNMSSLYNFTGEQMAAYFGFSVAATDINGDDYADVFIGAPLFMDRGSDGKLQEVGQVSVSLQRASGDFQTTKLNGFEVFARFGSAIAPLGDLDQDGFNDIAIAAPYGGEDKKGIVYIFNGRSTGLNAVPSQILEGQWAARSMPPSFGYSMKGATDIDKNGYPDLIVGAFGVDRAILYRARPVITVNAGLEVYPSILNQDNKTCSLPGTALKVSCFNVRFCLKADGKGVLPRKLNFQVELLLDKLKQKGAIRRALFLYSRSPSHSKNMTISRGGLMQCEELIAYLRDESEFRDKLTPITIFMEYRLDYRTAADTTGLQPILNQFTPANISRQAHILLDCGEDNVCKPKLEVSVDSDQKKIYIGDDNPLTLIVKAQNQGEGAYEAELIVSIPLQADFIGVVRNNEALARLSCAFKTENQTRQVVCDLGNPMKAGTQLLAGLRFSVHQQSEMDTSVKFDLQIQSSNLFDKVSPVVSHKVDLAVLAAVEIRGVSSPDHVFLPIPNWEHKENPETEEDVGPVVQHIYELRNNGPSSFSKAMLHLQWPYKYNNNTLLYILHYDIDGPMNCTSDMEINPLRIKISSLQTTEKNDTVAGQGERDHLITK

Columns and labels:
[1] = target: T1, vitronectin receptor (Vn-R) (Homo sapiens, UniProt P05106+P06756); assay: VnR binding, ELISA or liposome attachment assay (Table I)
T1 construct: from tissue; host or cells: human placenta
Procedure: Receptor and ligand purifications were performed according to the methods in this Example or those in Examaple XI.C. Receptors were purified according to the procedures of Pytela et al. (Methods Enzymol. 144:475 (1987)), incorporated herein by reference. […] After extraction, the suspension was filtered over a Sepharose 6B column and then applied to a GRGDSPK column. Except where stated, all procedures were carried out at 4° C. The peptide column was washed with three volumes of Tris-buffered saline (TBS) containing 1 mM Ca^2+ and Ca^2+ and 25 mM OG and then with TBS containing 1 mM 25 mM octyl thioglucoside (OTG) at room temperature. […] Finally, Ca^2+ and Mg^+2 were added to eluted fractions to achieve final concentrations of 1 mM for both ions.
Maxisorp microtiter plates were coated with 2 μg/ml human vitronectin dissolved in PBS ([…]) and stored overnight at 4° C. The plates were washed two times with PBS-0.05% Tween-20 (wash buffer) and blocked by incubating with about 150 μl/well of assay buffer (1%, BSA (RIA grade or better) in 50 mM Tris-HCl, 100 mM NaCl, 1 mM MgCl2, CaCl2, MnCl2 pH 7.4) for 60 minutes. Dilutions of standards were prepared and putative inhibitors (Table 2) were dissolved in assay buffer. The blocked plates were emptied and 20 μl/well of inhibitor or standard solution was added to each well. Twenty-five μl of a 30 μg/ml solution of purified αV β3 in assay buffer was pipetted into the coated plate. The final concentration of receptor in the assay well was about 15 μg/ml. The plate was incubated on a shaker for 60 minutes. Meanwhile, for each microtite plate, 6 ml buffer solution containing 1.5 μg/ml of mouse monoclonal antibody specific for β3 is prepared. To this solution was added the secondary antibody which is anti-mouse-Fc-HRP antibody conjugate. For example, for one plate, 6 ml of a 1.5 μg/ml mouse Mab solution was prepared to which was added 1 μl of anti-mouse-Fc-HRP antibody stock, (this represents a 1:6000 dilution of the antibody--HRP conjugate). This mixture was allowed to incubate during the receptor-inhibitor incubation. The assay plates were washed 4 times with PBS-Tween and 50 μl/well of the antibody mixture was then pipetted into the plate for a 60 minute incubation. The plate was washed 4 times and the color reaction was developed with 50 μl/well of 0.67 mg/ml o-phenyldiamine in PBS containing 0.012% H2 O2. Alternatively, 16 mM citric acid, 50 mM Na2 PO4 at pH 5.0 can be used as a substrate buffer. The reaction is stopped with 50 μl/well 1 M H2 SO4. The plates were read at 492-405 nm and the data analyzed by four-parameters fit.
This assay was performed with minor modifications, according to the method of Pytela et al., Methods Enzymol. 144:475 (1987), incorporated herein by reference. Briefly, 1:4 mixture of labelled and unlabelled phosphatidylcholine (PC) liposomes was dissolved under nitrogen and diluted with an equal volume of purified receptor (purified as described in Example II) to achieve a fixed predetermined receptor-liposome concentration ratio. This mixture was then dialyzed overnight at 4° C. in phosphate buffered saline (PBS) containing 1 mM Ca^2+. An aliquot of the dialyzed sample was counted to assess radioactive content; the receptor-liposome mixture was then diluted to obtain a set radioactivity per unit volume.
Microtiter plates were coated with 10 μg of vitronectin. Non-specific sites were blocked for 2 hours at 37° C. in PBS containing 5 mg/ml BSA and 1 mM each of CaCl2 and MgCl2. The plates were then rinsed twice with PBS containing 1 mM Ca^+2 and Mg^+2, and 100 μl of the liposome-receptor mixture was added to each well. If necessary, peptides were added before this step in a 1-10% dilution. The plates were then incubated at 4° C. for 24 hours. The following day, the liquid in each well was aspirated and the plates were washed twice with PBS containing 1 mM Ca^+2 and Mg^+2. […]

Bleeding time (Table IV) = type: in vivo; details: before dose
Procedure: Bleeding time was quantified at 1 hour before and one, three, and five hours after administration of the peptide. This was done by making a small (5 mm long and 1.5 mm deep) incision in the tongue and subsequently absorbing the exuded blood at this site every 15 seconds with a piece of Whatman filter paper until bleeding stopped. Platelet counts were determined with a Haema Count MK-4/HC platelet counting system.
Using the method described in Example V to measure ex vivo inhibition of platelet aggregation and the method described in Example VII to measure bleeding, four additional peptides were tested. These peptides included 11J, 11Q, 11K and 11V.

[2] = Rabbit peripheral blood flow (PBF), laser dopler flow probe; type: in vivo; details: bolus dose printed with drug
Procedure: (§1) In an alternative series of experiments, (Table 2) PBF was measured quantitatively with a laser dopler flow probe (Perimed). The probe was positioned securely over the vascular bed of one ear and flow monitored continuously. Each inhibitor was infused and CBT measured in the opposing ear. No arterial catheter was placed for blood sampling, consequently XPA was measured in these animals.
As positive control, epinephrine was infused intravenously (1 mg over 2 minutes) at 60 minutes. The resulting vasoconstriction reduced flow to near 0 flow units within 5 minutes.

[3] = Baboon template bleeding time, clotting time and hematology; type: in vivo
Procedure: Twenty-four hours before the ex vivo shunt was established, platelets were isolated from 500 ml of blood from the test animal and labelled with ca. 500 microcuries of indium-111 oxine (Medi+Physics, Emeryville, Calif.), which irreversibly and specifically binds to platelets with an efficiency of 50%. Immediately after labelling, these platelets were then injected back into the animal and allowed to circulate for 24 hours. Immediately before the start of the study, fibrinogen that had been isolated from the animal and labelled with iodine-131 (DuPont Nuclear, Boston, Mass.) was also injected back into the animal. Also at this time, baseline determinations of the clotting and template bleeding times were made, and blood samples were drawn for hematology studies.
At one- and two-hour time points, template bleeding times were measured, and blood samples were drawn to assess the hematology aggregation studies. Platelet aggregation studies were performed as described in Example V using ADP as the stimulus.
Upon the completion of each study, each shunt was flushed with lactated Ringer's solution, and each graft was then removed. Sections of these grafts were subjected to liquid scintillation counting to determine their content of residual ^131 iodine-fibrinogen and ^111 indium-platelets. The catheters in the femoral artery and vein were then removed, and hemostasis was achieved by compression. Finally, post-procedural blood samples were drawn, and determinations of template bleeding and clotting times were also made.

platelets = assay: Ex vivo platelet aggregation in canine coronary thrombosis model; details: dog, 10 mg/kg, all three time points
Procedure: For all ex vivo studies (see FIG. 3), control aggregation values were standardized to the percentages of light transmission observed in PRP and PPP samples (0% and 100%, respectively).
Animals were randomly assigned to two treatment groups: vehicle control (i.e., normal saline) or RGD peptides at various concentrations. Peptides were administered intra-atrially in both bolus and continuous injections. Each bolus injection consisted of 0.5 to 10 mg/kg and was administered 15 minutes before application of the current. A continuous infusion of the same peptide was then started immediately after completion of this initial injection. Animals received a 25 μg/kg/min to 200 μg/kg/min infusion. The anti-thrombotic effects of the peptides were monitored until 30 minutes after the occurrence of a persistent, occlusive thrombus or five hours after the initiation of electrical stimulation (whichever resulted first). […]
Platelet counts and ex vivo aggregation studies were performed one hour before and 1, 3, and 5 hours after application of anodal direct current. Samples of arterial blood were drawn into plastic syringes containing 3.8% trisodium citrate (giving a 1:10 final dilution) and platelet aggregation determined as described in Example V.
Platelet aggregation was also determined ex vivo at one, three, and five hours after current application. […]

[4] = Rabbit cutaneous bleeding time (CBT); type: in vivo; details: bolus dose printed with drug
Procedure: Unanesthetized male New Zealand White rabbits (2.5-3.5 kg) were placed in a standard rabbit restrainer. Ears were shaved and a 20G teflon catheter with flowswitch (Viggo) was placed in the medial artery, flushed with saline and locked with 1 ml of heparinized saline (10 m/ml). A 22G catheter (Abbott) fitted with an injection cap (Medex) was placed in the marginal vein of the same ear. Saline or a GP IIb IIIa receptor antagonist, at a concentration of 1 to 3 mg/ml, was infused via the venous catheter. At time 0, 41% of the dose was given as a bolus over 2 minutes. The remainder was continuously infused over the following 60 minutes. Blood samples (3.2 ml) were collected into syringes without needles via the arterial catheter at -10, -5, 10, 45 and 60 minutes. […]
CBT was measured at -10, -5, 10, and 45 minutes on the opposite ear, using an automated incision-making instrument (SurgicuttR, ITD). […]
as §1

[5] = baboon animal 1, immediately after completion of second shunt

Substance | IC50 [1] [µM] | also measured
D(Pmc)GHRGD(O-Me-Tyr)RCR | 8.85 | –
K(Pen)GRGDTPCA | 0.015 | –
R(am-Pmp)GHRGDWRCR | 5.9 | –
R(Pmc)GHRGD(O-Me-Tyr)OCR | 9.3 | –
Ac--CNPRGD(Y--OMe)EC--NH2 [11J] | – | Pre dose bleeding time (Bleeding time (Table IV)): 2.1 min
Ac--CNPRGD(Y--OMe)AC--NH2 [11K] | – | Pre dose bleeding time (Bleeding time (Table IV)): 2.1 min
Ac--CNPRGD(Y--OMe)(Nle)C--NH2 [11V] | – | Pre dose bleeding time (Bleeding time (Table IV)): 2.0 min
F(Pmc)GHRGD(O-Me-Tyr)RCR | 6.04 | –
R(am-Pmp)GRGDWPCR | 0.84 | –
H(Pmc)GHRGD(O-Me-Tyr)RCR | 8.4 | –
K(Pmc)GHRGD(O-Me-Tyr)RCK | 3.9 | –
G(Pen)GRGDWPCA | 12.7 | –
R(Pmc)GHRGD(Phg)RCR | 0.79 | –
Ac--CNPRGD(Y--OMe)RCNH2 [8X] | – | PBF ([2]; time 0 min): 263 units; PBF ([2]; time 10 min): 317 units; PBF ([2]; time 45 min): 293 units
(Pmp)GHRGDLR(Pen)A | 5.2 | –
G(Pen)GRGDLPCA | 0.073 | –
R(Pen GRGDWPCR [4R] | 4.2 | –
R(Pen)GHRGDLRCR | 37.1 | –
R(Pen)GHRGD(Cha)RCR | 10 | –
G(Pen)GHRGDLRCA [2G] | 1.2 | template bleeding and clotting times ([3]; baboon animal 1): did not lower; reduction of platelet count [3, 5]: 14%; reduction of white blood cell count [3, 5]: 37%; effect on template bleeding time, clotting time, all blood cell counts ([3]; baboon animal 2): no effect; inhibition of ex vivo AA-stimulated aggregation relative to control levels (platelets): 43-70%; inhibition of ex vivo collagen-stimulated aggregation relative to control levels (platelets): 12-50%
Ac(dPen)IPRGD(O-Me-Tyr)RC--NH2 | 4.32 | –
G(Pen)GRGDFPCA | 2.7 | –
Ac--CNPKGD(Y--OMe)RC--NH2 [11Q] | – | Pre dose bleeding time (Bleeding time (Table IV)): 2.1 min
R(Pmc)GHRGD(Y--OMe)RCR | – | PBF ([2]; time 0 min): 392 units and 318 units; PBF ([2]; time 45 min): 360 units and 283 units; CBT ([4]; time 0 min): 2.9 min and 2.1 min; CBT ([4]; time 45 min): 1.5 min and 1.2 min
G(dPen)GHRGDLRCA | 5.3 | –
R(Pmc)RHRGD(O-Me-Tyr)RCR | 6.2 | –

Several values for one entry are separate records, joined by “and”; a condition that tells them apart may be missing. Equal entries are not always repeated.
